{
  "sequences": {"note": "The chains behind the UniProt entries cited, without tags or fusion partners. Residues count along the entry.", "UniProt P23219, 24-599": "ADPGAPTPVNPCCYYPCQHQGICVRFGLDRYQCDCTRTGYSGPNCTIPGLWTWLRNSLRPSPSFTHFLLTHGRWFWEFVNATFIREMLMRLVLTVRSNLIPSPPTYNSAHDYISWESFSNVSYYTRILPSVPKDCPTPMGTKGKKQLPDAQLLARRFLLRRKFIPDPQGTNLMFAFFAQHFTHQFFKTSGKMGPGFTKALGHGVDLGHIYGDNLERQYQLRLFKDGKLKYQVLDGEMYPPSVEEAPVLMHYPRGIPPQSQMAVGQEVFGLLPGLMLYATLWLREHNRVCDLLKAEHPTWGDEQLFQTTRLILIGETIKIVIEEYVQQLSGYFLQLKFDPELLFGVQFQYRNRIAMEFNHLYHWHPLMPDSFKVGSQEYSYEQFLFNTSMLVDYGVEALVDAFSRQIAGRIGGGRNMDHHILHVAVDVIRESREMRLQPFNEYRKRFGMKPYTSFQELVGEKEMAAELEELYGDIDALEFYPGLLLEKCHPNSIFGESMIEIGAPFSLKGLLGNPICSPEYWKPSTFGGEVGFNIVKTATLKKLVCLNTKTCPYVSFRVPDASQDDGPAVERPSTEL"},
  "source": "patent US20060167075A1",
  "about": "“Modulators of FAAH” (priority 2005, published 2006)",
  "biological_target": "COX-1 (Homo sapiens, UniProt P23219)",
  "test": "cell-based",
  "data": [
    {"smiles": "Cc1onc(-c2ccccc2)c1-c1ccc(S(N)(=O)=O)cc1", "note": "[Valdecoxib, 4-(5-methyl-3-phenyl-isoxazol-4-yl)benzenesulfonamide]", "values": [
      {"measurement": "IC50", "result": 100, "unit": "µM"}
    ]},
    {"smiles": "CS(=O)(=O)c1ccc(C2=C(c3ccccc3)C(=O)OC2)cc1", "note": "[Rofecoxib]", "values": [
      {"measurement": "IC50", "result": 39, "unit": "µM"}
    ]}
  ]
}
